Source: PubChem BioAssay AID602438 (Sanford-Burnham Center for Chemical Genomics, 2012)
This is a selection; strong and weak results do not stand in their true shares. Some results for these compounds are left out of this collection, so the calls shown say nothing about other tests. Activity calls are given as the source filed them.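 The calls were made as follows: active = inhibition or corrected inhibition above about 18%, plus a signal ratio from 0.5 to 1.5 (limit read from the data, passing the limit was not always enough); inactive = the rest.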

Sequences of proteins named here, by UniProt entry; tags and fusion partners are left off.
UniProt O14786, whole entry: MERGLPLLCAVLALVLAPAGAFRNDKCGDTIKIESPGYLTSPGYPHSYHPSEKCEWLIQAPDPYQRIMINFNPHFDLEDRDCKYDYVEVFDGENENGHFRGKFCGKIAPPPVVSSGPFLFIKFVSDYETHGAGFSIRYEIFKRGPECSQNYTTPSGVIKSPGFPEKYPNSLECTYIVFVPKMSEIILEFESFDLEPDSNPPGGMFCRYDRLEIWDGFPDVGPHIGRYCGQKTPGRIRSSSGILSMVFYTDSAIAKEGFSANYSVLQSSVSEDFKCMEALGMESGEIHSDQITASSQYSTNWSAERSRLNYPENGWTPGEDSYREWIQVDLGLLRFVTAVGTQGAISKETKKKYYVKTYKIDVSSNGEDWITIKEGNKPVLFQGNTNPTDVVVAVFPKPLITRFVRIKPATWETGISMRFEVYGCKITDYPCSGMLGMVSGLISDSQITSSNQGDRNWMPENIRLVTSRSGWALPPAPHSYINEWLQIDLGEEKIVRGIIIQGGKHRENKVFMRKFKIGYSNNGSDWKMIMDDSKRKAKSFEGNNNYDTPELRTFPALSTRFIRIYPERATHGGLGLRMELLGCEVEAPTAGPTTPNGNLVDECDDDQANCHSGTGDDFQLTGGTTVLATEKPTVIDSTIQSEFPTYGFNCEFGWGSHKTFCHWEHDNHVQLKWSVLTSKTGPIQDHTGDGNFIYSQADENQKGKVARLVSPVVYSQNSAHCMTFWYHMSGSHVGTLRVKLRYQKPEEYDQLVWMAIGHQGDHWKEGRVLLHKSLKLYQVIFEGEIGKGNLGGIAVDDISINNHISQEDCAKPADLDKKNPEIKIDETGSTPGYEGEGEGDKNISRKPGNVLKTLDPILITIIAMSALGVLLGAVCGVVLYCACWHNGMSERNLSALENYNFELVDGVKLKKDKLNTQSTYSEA

These molecules were tested against Neuropilin-1 (Homo sapiens) (UniProt O14786) (assay: modulators of CendR peptide binding to NRP-1, primary screen, biochemical, fluorescence polarization, uHTS (AID 602438)). Settings: FAM-RPARPAR peptide binding to NRP-1, fluorescence polarization; at 25 µM; hits give high values.
With COc1ccc(Br)c(C(=O)NCC2(N3CCCCC3)CCCCC2)c1 the inhibition was inactive: -18.9%. With C=C(C)C#CC(O)(C(=O)OC1CCN(C)CC1)c1ccccc1 (stereo unspecified) the inhibition was inactive: -4%. For CN(C)c1cccc(C(=O)NCC2(N(C)C)CCCCC2)c1, the inhibition was inactive: 9.7%. In the case of O=C(OCCN1CCCC1)C(O)(c1ccccc1)c1ccccc1, the inhibition is reported as inactive: 16.4%. For CC(C)Oc1ccc(C(=O)NCC2(N(C)C)CCCCC2)cc1, the inhibition was inactive: 7.9%. O=C(OC1CN2CCC1CC2)C(CO)(c1ccccc1)c1ccccc1 (stereo unspecified) was tested, and the inhibition was inactive: -2.1%. COc1ccc(Cl)cc1C(=O)NCC1(N(C)C)CCCCC1 was tested, and the inhibition was inactive: -2.6%. COc1cccc(C(=O)NCC2(N3CCCCC3)CCCCC2)c1 was tested, and the inhibition was inactive: -14.2%. O=C(NCC1(N2CCCCC2)CCCCC1)c1cccc(Cl)c1 was tested, and the inhibition was inactive: 5.5%. CN(C)C1(CNC(=O)c2ccc(Br)cc2)CCCCC1 was tested, and the inhibition was inactive: 14.5%. COc1cc(C(=O)NCC2(N(C)C)CCCCC2)c([N+](=O)[O-])cc1OC was tested, and the inhibition was inactive: 6.8%. In the case of O=C(NCC1(N2CCCCC2)CCCCC1)c1cc(F)c(F)cc1Cl, the inhibition is reported as inactive: -5.1%. In the case of C=CCN1CCN(CCOC(=O)C(O)(c2ccccc2)c2ccccc2)CC1, the inhibition is reported as inactive: -2.6%. With O=C(NCC1(N2CCCCC2)CCCCC1)c1cccc(Br)c1 the inhibition was inactive: 11.3%. In the case of Cc1cc(C(=O)NCC2(N3CCCCC3)CCCCC2)ccc1[N+](=O)[O-], the inhibition is reported as inactive: 4.2%. For CCN1CCCC(OC(=O)C2(O)c3ccccc3C=Cc3ccccc32)C1 (stereo unspecified), the inhibition was inactive: 7%. For COc1ccc(C(=O)NCC2(N(C)C)CCCCC2)cc1, the inhibition was inactive: 0.8%. For CN(C)C1CCCC1OC(=O)C(O)(c1ccccc1)c1ccccc1 (stereo unspecified), the inhibition was inactive: 4.8%. CN(C)c1ccc(C(=O)NCC2(N(C)C)CCCCC2)cc1 was tested, and the inhibition was inactive: 4.9%. For Cc1ccccc1C(=O)NCC1(N2CCCCC2)CCCCC1, the inhibition was inactive: 21%. With CC(C)N1C(=O)CC2(CCN(CCOC(=O)C(O)(c3ccccc3)c3ccccc3)CC2)C1=O the inhibition was inactive: -18.6%. For COc1cc(SC)ccc1C(=O)NCC1(N(C)C)CCCCC1, the inhibition was inactive: 6.3%. CCN(CC)CC(C)C(C)OC(=O)C(O)(c1ccccc1)c1ccccc1 (stereo unspecified) was tested, and the inhibition was inactive: 10.8%. For Cc1ccc(C(=O)NCC2(N3CCCCC3)CCCCC2)cc1, the inhibition was inactive: -6.1%. O=C(NCC1(N2CCCCC2)CCCCC1)c1cc([N+](=O)[O-])ccc1Cl was tested, and the inhibition was inactive: -16.2%. For CN1[C@@H]2CC[C@H]1CC(OC(=O)C(O)(c1ccccc1)c1ccccc1)C2 (stereo partly specified), the inhibition was inactive: -2.7%.
